This note sets out measurements from IntAct's records for PubMed 27088854.

To fix the notation:
B1: Ketohexokinase (Homo sapiens), P50053-2 (parent)
chain: MEEKQILCVGLVVLDVISLVDKYPKEDSEIRCLSQRWQRGGNASNSCTVLSLLGAPCAFMGSMAPGHVADFVLDDLRRYSVDLRYTVFQTTGSVPIATVIINEASGSRTILYYDRSLPDVSATDFEKVDLTQFKWIHIEGRNASEQVKMLQRIDAHNTRQPPEQKIRVSVEVEKPREELFQLFGYGDVVFVSKDVAKHLGFQSAEEALRGLYGRVRKGAVLVCAWAEEGADALGPDGKLLHSDAFPPPRVVDTLGAGDTFNASVIFSLSQGRSVQEALRFGCQVAGKKCGLQGFDGIV

This assay covers variants of B1. Conditions: with p60891-1 PRPS1, P60891-1.
On to MEEKQILCVGLVVLDVISLVDKYPKEDSEIRCLSQRWQRGGNASNSCTVLSLLGAPCAFMGSMAPGHVADFVLDDLRRYSVDARYTVFQTTGSVPIATVIINEASGSRTILYYDRSLPDVSATDFEKVDLTQFKWIHIEGRNASEQVKMLQRIDAHNTRQPPEQKIRVSVEVEKPREELFQLFGYGDVVFVSKDVAKHLGFQSAEEALRGLYGRVRKGAVLVCAWAEEGADALGPDGKLLHSDAFPPPRVVDTLGAGDTFNASVIFSLSQGRSVQEALRFGCQVAGKKCGLQGFDGIV [L83A], for which the “effect of a mutation on the interaction” value is “disrupting interaction strength”.
